Tested on: TM3 Leydig cells
Experiment: cAMP quantification in Leydig cells
Format: cell-based, mouse
Settings: 30 minutes, 0.5 mM IBMX
Procedure: For cAMP measurements, TM3 Leydig cells were plated in 6 cm dishes (10^7 cells per dish) a day before experiment. Cells were serum starved for 16 hours (in the presence of 0.1% BSA) then pre-incubated in the presence of 0.5 mM IBMX for 30 minutes and stimulated with the indicated concentration of osteocalcin (also in the presence of 0.5 mM IBMX) for 30 minutes. cAMP concentration was measured with the Parameter cAMP kit (R&D Systems, KGE002).

Q: For “hCG: human chorionic gonadotropin, positive control; binds to the LH receptor on Leydig cells [reference compound]”, which cAMP production is on record?
A: Its cAMP production is “induced”.
